For 1 compound, Ki results are on record in ChEMBL document CHEMBL2346567, “Selective aminopeptidase-N (CD13) inhibitors with relevance to cancer chemotherapy” (Bioorg Med Chem, 2013).

This test deals with T1, Aminopeptidase N (Mus musculus, UniProt P97449).
T1 sequence (P97449 whole entry): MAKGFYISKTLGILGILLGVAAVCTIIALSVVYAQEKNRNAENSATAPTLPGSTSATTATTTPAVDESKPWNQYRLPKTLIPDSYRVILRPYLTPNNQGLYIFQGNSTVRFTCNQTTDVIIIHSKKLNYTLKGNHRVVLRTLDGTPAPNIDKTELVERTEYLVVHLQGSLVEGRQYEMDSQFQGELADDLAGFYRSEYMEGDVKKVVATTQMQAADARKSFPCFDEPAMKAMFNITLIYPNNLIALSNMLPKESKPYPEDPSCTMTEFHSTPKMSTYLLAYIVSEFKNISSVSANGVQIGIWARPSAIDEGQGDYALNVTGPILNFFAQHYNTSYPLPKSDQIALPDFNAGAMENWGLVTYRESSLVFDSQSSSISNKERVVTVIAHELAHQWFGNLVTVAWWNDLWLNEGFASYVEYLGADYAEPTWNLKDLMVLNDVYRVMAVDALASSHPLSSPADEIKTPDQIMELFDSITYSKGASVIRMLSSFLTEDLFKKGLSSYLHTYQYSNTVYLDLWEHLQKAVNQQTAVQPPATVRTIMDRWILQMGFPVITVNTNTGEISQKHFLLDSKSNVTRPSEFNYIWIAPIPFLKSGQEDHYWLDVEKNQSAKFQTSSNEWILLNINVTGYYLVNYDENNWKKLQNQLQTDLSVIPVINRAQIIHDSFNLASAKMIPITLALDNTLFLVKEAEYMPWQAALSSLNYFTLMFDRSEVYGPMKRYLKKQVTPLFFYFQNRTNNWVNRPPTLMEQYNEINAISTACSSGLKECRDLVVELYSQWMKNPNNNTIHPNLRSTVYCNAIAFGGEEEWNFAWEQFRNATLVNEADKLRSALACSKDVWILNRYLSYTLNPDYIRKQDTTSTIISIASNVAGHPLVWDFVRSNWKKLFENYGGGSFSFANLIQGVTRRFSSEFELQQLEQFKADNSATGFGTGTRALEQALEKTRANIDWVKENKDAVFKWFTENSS
Briefly: Inhibition of mouse APN using L-leucine-p-nitroanilide as substrate measured every 10 mins for 2 hrs by spectrophotometric analysis.

Broadly, the Ki is a measure of affinity in units of concentration, obtained from inhibition or displacement. For the compound `NC1CCc2ccccc2CC1=O` (stereo unspecified), the Ki is 2000 nM.
